Source: BindingDB's records for 7990111 (1995)

Chains of the proteins cited; added tags and fusions are not shown.
UniProt Q99720, whole entry, looked up: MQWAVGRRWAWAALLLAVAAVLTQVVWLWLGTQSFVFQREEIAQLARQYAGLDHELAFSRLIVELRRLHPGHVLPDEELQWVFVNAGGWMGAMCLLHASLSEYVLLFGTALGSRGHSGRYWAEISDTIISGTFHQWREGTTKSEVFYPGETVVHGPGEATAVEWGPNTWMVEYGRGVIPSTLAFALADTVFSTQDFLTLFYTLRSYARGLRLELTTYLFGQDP

Molecular target: Sigma non-opioid intracellular receptor 1 (Homo sapiens, UniProt Q99720)

O=C(CCCN1CCC2(CC1)C(=O)NCN2c1ccccc1)c1ccc(F)cc1
IC50: 955 nM
